Test system: NADH
Assay: purified protein, by the assay type
Details: pH 8.0; 30.0 °C

## NOX (NADH oxidase) (Gluconobacter thailandicus NBRC 3257)
  Km: 29 µM
